# Binding of CDR-mutated scFvs to a peptide of the spike HR2 region

The target is the same throughout: PDVDLGDISGINAS, from the HR2 region of SARS-CoV-2 spike.

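The starting antibody came from a phage panning campaign against this peptide. The variants were designed computationally from a first round of random CDR variants and then made and measured. Group labels follow the data file (Ctrl: baseline library sampled from a position-specific scoring matrix, with some repeated check sequences; GP: Gaussian process model; HC: hill climbing; Gen: genetic algorithm; Gibbs: Gibbs sampling; a sequence that several methods proposed may carry one label only). Affinity was read by AlphaSeq, a pooled yeast mating assay with surface-displayed partners. Mating (16 h, 30 °C) was followed by selection of diploids and sequencing of their barcodes. The ratio of observed to expected reads was calibrated, replicate by replicate, on BCL2-family standards whose Kd was known from biolayer interferometry. Each pool was mated in six replicate cultures.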

Parent scFv Ab-14: VH joined to VL by the linker GGGGSGGGGSGGGGS. Changes lie in the light chain CDRs alone.
VH: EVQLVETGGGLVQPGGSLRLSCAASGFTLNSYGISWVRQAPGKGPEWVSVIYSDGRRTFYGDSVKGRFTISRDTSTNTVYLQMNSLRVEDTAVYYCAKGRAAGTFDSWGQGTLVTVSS
VL: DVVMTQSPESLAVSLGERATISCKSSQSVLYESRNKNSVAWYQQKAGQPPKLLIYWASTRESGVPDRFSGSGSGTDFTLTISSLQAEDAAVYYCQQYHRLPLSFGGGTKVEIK

Changes read parent residue, position, new residue, counted from the first residue of the VL shown.
This list holds designs with at most six substitutions.
Kd is apparent (estimated from mating counts) and averaged on the log scale over replicates with a signal. Smaller is tighter.
"not detected" means that the variant was in the library but no mating with the target was seen in any replicate; the authors take this as a sign of poor binding, and no number exists.
As a blank, each scFv also met three strains without target: over all light chain designs, 4% of these pairings were detected, typically at 430 nM and seldom below 38 nM. For each scFv, signals with the empty controls are counted beside the result.

changes	group	apparent Kd	seen in	empty controls
S33N S38D W56G	Ctrl	130 nM	1 of 6	0 of 18
S25L W56Q	Ctrl+GP_Gen	620 pM	12 of 12	1 of 36
S25L V29E N35M W56N E61M	GP_Gen	1.4 nM	6 of 6	1 of 18
S25L S26Q Q27M V29M W56N T59L	GP_Gibbs	390 pM	6 of 6	0 of 18
E32D Q95V	Ctrl	not detected	0 of 6	1 of 18
S25L S26E V29I L30D W56N	GP_HC	670 pM	6 of 6	0 of 18
S25L S26Q V29W W56S T59Q	GP_Gen	2.7 nM	6 of 6	0 of 18
S25V S26G S28G W56G T59M	GP_HC	1.8 nM	6 of 6	2 of 18
S26L L30V S33D W56H S62D	GP_HC	860 pM	6 of 6	1 of 18
S25F Q27F Y31L N35T W56N	GP_HC	9.8 nM	6 of 6	0 of 18
R34S N35Y W56G	Ctrl	1.3 nM	6 of 6	2 of 18
K36G Q95Y	Ctrl	not detected	0 of 6	0 of 18
S25L L30M W56N S62V	GP_Gen	460 pM	6 of 6	2 of 18
N35M E61S	Ctrl	82 nM	6 of 6	1 of 18
S25L S26P V29E W56D	GP_Gen	230 pM	6 of 6	0 of 18
S33M W56A H98A	Ctrl	1.2 nM	6 of 6	4 of 18
S28G V29A W56G	GP_HC	38 nM	5 of 6	0 of 18
S25L V29T W56N E61M	GP_Gen	1.2 nM	6 of 6	1 of 18
R34N S38N Q96W	Ctrl	not detected	0 of 6	0 of 18
S25L V29M W56D T59Q	GP_Gen	720 pM	6 of 6	0 of 18
S25L S26E V29H W56N T59Q E61L	GP_Gen	780 pM	6 of 6	2 of 18
S25W S26Q Q27W V29W W56E A57G	GP_Gibbs	4.8 nM	6 of 6	1 of 18
S26E L30D R34A P101Y S103M	Ctrl	not detected	0 of 6	0 of 18
V29F N35W W56N T59Q	GP_HC	2.3 nM	6 of 6	1 of 18
S25F S28W R34G N35T W56N	GP_HC	1.5 nM	6 of 6	1 of 18
V29W S33D N35V W56G T59Q	GP_HC	1.7 nM	6 of 6	1 of 18
S25L S26M W56N T59Y S62Q	GP_Gibbs	660 pM	6 of 6	1 of 18
K36P Q96E	Ctrl	not detected	0 of 6	0 of 18
S25L S26P V29T L30G W56N	GP_Gen	1.5 nM	6 of 6	2 of 18
S25T Q27G K36Y W56G	Ctrl	7.6 nM	6 of 6	2 of 18
R99D	Ctrl	180 nM	2 of 6	1 of 18
S25L S38N W56E	GP_Gen	1.4 nM	6 of 6	2 of 18
S28G R34K E61I	Ctrl	150 nM	6 of 6	0 of 18
Q27G V29Y K36E W56E S62Q	GP_HC	1.1 nM	6 of 6	0 of 18
S25L S26Q V29Y W56N E61L	GP_Gen	630 pM	6 of 6	1 of 18
L30Y R34T K36C Q96R	Ctrl	not detected	0 of 6	0 of 18
R34Q K36N	Ctrl	340 nM	6 of 6	1 of 18
S25L S26R V29T K36Q W56S	GP_HC	410 pM	6 of 6	1 of 18
S25Q R34P E61V S62R Y97L L100M	Ctrl	not detected	0 of 6	0 of 18
L30Q R34N R99E	Ctrl	73 nM	5 of 6	0 of 18
Q27G S28N	Ctrl	not detected	0 of 6	0 of 18
K24N S25L V29W W56E A57G S58N	GP_HC	490 pM	6 of 6	0 of 18
S28P N37H	Ctrl	not detected	0 of 6	0 of 18
S25H S33W W56G	GP_HC	1.2 nM	6 of 6	3 of 18
R34D S103D	Ctrl	540 nM	4 of 6	3 of 18
Y31E W56N Y97T L102I	Ctrl	7.1 nM	6 of 6	1 of 18
S25L T59S	Ctrl	2.3 nM	6 of 6	1 of 18
Q27G Y31A E32D K36C S58L	Ctrl	not detected	0 of 6	0 of 18
S25V S26D V29F H98S	Ctrl	2.1 nM	6 of 6	0 of 18
R34E W56E	Ctrl+GP_HC	3.1 nM	12 of 12	2 of 36
K24S S25L S26M W56H T59D S62D	GP_HC	3.7 nM	6 of 6	0 of 18
K24L L30I N35H K36M	Ctrl	not detected	0 of 6	1 of 18
L30S R34M S103T	Ctrl	16 nM	6 of 6	0 of 18

Picked from the list: the 7 lowest averages where every replicate gave a value.

changes	group	apparent Kd	seen in	empty controls
S25L S26P V29E W56D	GP_Gen	230 pM	6 of 6	0 of 18
S25L S26Q Q27M V29M W56N T59L	GP_Gibbs	390 pM	6 of 6	0 of 18
S25L S26R V29T K36Q W56S	GP_HC	410 pM	6 of 6	1 of 18
S25L L30M W56N S62V	GP_Gen	460 pM	6 of 6	2 of 18
K24N S25L V29W W56E A57G S58N	GP_HC	490 pM	6 of 6	0 of 18
S25L W56Q	Ctrl+GP_Gen	620 pM	12 of 12	1 of 36
S25L S26Q V29Y W56N E61L	GP_Gen	630 pM	6 of 6	1 of 18

The range of this assay differs from that of the first round, and the authors advise against merging the two.
A sequence that the file lists under several names has all its replicates pooled.
In the paper, a design with two or fewer of six values counts as a poor binder.

Data: MIT Lincoln Laboratory AlphaSeq set, Li et al. 2023, doi:10.1038/s41467-023-39022-2, as distributed in FLAb.